Measured affinities in a library of Ab-14 light chain variants

Values reported by Li et al. 2023, doi:10.1038/s41467-023-39022-2 (FLAb copy).

Target peptide (SARS-CoV-2 spike, HR2 region): PDVDLGDISGINAS

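The parent was found by panning a naive human phage display library on the peptide. The variants were designed computationally from a first round of random CDR variants and then made and measured. Group labels follow the data file (Ctrl: baseline library sampled from a position-specific scoring matrix, with some repeated check sequences; Rand: our label for a block that the file lists under HC and that is probably the random mutants of the ten best first-round binders; En: ensemble of fine-tuned language models; GP: Gaussian process model; HC: hill climbing; Gen: genetic algorithm; Gibbs: Gibbs sampling; a sequence that several methods proposed may carry one label only). Affinity was read by AlphaSeq, a pooled yeast mating assay with surface-displayed partners. After mating in shaken culture at 30 °C for 16 h, diploids were selected and their barcode pairs sequenced. Scores were corrected for input abundance and mapped to Kd with protein pairs of known affinity run in the same pool. Mating was done six times.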

Parent: Ab-14, a human scFv built as VH, a 15-residue (Gly4Ser)3 linker, VL. Only the CDRs of the light chain vary.
VH: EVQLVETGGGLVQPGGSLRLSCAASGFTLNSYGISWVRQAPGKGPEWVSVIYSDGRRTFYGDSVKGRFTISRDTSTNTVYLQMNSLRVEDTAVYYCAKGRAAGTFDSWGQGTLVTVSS
VL: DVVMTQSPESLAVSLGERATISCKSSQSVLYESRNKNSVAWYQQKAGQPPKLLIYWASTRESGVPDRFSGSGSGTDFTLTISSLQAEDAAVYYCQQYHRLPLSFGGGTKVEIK

Each variant is given by its three light chain CDRs, as the data file delimits them; those of the parent are KSSQSVLYESRNKNSVA, WASTRES, QQYHRLPLS.
Numbers give log10(Kd / nM), so 0 is 1 nM and 3 is 1 µM. Smaller is tighter.
A mean of the replicates is given; it leaves out those without a signal.
An entry "no signal" has no value in the source: the pair was not observed among the diploids in any replicate. This suggests poor binding but is not conclusive.
Background: pairings of all light chain designs with three empty control strains gave a value in 4% of cases (median 2.64, 5th percentile 1.59). Values in that range, when seen in few replicates, are hard to tell from nonspecific mating.
The authors averaged sequences with at least three values out of six and counted those with two or fewer as poor binders.
A sequence measured in both rounds can read differently, since the two assays cover different ranges.
The parent sequence was in this pool as ten entries: three were never detected, three once, and four in most replicates, with averages from 0.34 to 2.37.

CDR-L1 | CDR-L2 | CDR-L3 | group | mean log10 Kd (nM) | seen in
KSSQSHLYESRNKNSVA | WASTRES | QQYHRLPLS | Ctrl | 1.50 | 6 of 6
KSSQSVLYESRAKNSVA | WASQRES | QQYHRLPLS | Ctrl | no signal | 0 of 6
MVNGVLDHLSKNTNNVA | ETSTRES | QQYDRLPLQ | En_Gen | 0.76 | 6 of 6
KISMLYNFAQTNKNSIA | EMTTREE | QHYHRLPLS | En_HC | 1.65 | 6 of 6
KVSEFMRGLMKMQDSIA | DNETRPD | QQYDRLPLS | En_Gen | 2.61 | 6 of 6
KSSQSVLKESTNKNSVA | WAATRES | QQYHHLPLS | Ctrl | 1.79 | 6 of 6
KSSQSVFYESRNKNSVA | SASTRES | QQYHRLPLS | Ctrl | 0.87 | 6 of 6
KSSQSVLYSSQNNNSVA | WASLRES | QQYHRLPLS | Ctrl | 2.86 | 6 of 6
KWSQSVDYESRNKNSVA | NGSTREA | QQYHRLPLS | GP_Gibbs | 0.27 | 6 of 6
KIEQSELYESRNKNSVA | NASQRES | QQYHRLPLS | GP_Gen | -0.51 | 6 of 6
KLRQSTLMESRNYNSVA | WASTRES | QQYHRLPLS | Rand | 0.70 | 6 of 6
TISMSMRYESSLKNAIA | NAQTRES | QQYHRLPIS | En_HC | 0.92 | 6 of 6
QMRDSLSQGIYRQDSVA | STDIRVL | QQYHHLPLS | En_Gibbs | 0.41 | 6 of 6
MISDLMLYGSRQKNPIA | NASTREY | QQYHRLPLE | En_HC | 1.05 | 6 of 6
KYSQNVLIMGKNKNNVA | EMTTREE | QQYDRLPLS | En_HC | 0.39 | 6 of 6
RIQDHHAEGEMRHSSIA | EESYRMD | QHYSRLPLA | En_Gibbs | 0.55 | 6 of 6
MVTQMAMTGMTNKRSVA | NAEQRED | QQYHRLPLI | En_Gen | 0.59 | 6 of 6
QLQIEDNGYMGMRNNVA | DGGMVRM | QQYARLPLM | En_Gibbs | 0.51 | 6 of 6
MISQSFLIGMKAKNSVA | QTNTRET | QQYDRLPLI | En_HC | -0.06 | 6 of 6
KSDQSVLYDRRNKNSMA | WASTRES | QQYHRLPLS | Ctrl | 1.78 | 2 of 6
HITYGMQVAGRHSKSIA | QAEERAK | QQYDRLPLA | En_Gen | 0.20 | 6 of 6
KLPQSMLYESRNKNSVA | HASTRES | QQYHRLPLS | GP_Gen | -0.17 | 6 of 6
KLYQSVLYESRNKNSVA | HASTRES | QQYHRLPLS | GP_Gen | 0.21 | 6 of 6
KLQFSEEYESRNKNSVA | SAHQRES | QQYHRLPLS | GP_Gibbs | -0.30 | 6 of 6
KHPQSVLYESRNKNSVA | HASTRED | QSYHRLPLS | GP_HC | -0.05 | 6 of 6
KLQCSELMESRNSNSVA | HASKRES | QDYHRLPLS | GP_Gibbs | 1.06 | 6 of 6
KIMQSLNYESFNVSSVA | GQETRER | QSYHRLPLS | En_HC | 2.48 | 4 of 6
HFAKNLTSLANSKQNVA | NASTVMV | QYYNRLPLS | En_Gibbs | 2.32 | 3 of 6
KISQSVWYESHNKNSVA | WASTRES | QQYHRLPCS | Ctrl | no signal | 0 of 6
KASNSNLYESRNGNSVA | NASTRLH | QQYHRLPLS | GP_Gibbs | 0.33 | 6 of 6
KIVQSWLYESRNKNSVA | GASTRES | QQYHRLPLS | GP_HC | 0.20 | 6 of 6
MIYGAQRELGLTANSIA | DNVTRYN | QQYERLPLS | En_Gen | 2.65 | 2 of 6
KLMNSMLYESRNVNNVA | NASYREL | QQYHRLPLS | GP_Gibbs | -0.14 | 6 of 6
KLYERGEGSQKVDRSIA | EMSTRCE | QSYQRLPLS | En_Gibbs | 1.36 | 6 of 6
KLLQSVLYESRNKNSVA | NASTRMS | QQYHRLPLS | GP_Gen | 0.13 | 6 of 6
KLWAYTQGFFRNMQNIA | DGSYRVT | QQYGRLPLS | En_Gibbs | 0.60 | 6 of 6
KSSQSWLYESRNFWSVA | GASQRES | QQYHRLPLS | GP_HC | 0.78 | 6 of 6
KSSQSVLYYSRNKNSVA | DASTRES | QQYHRLPLS | Ctrl | 0.31 | 6 of 6
KLSQSVLYEQRNKYQVA | WASTRWS | QQYHRLPLS | Ctrl | 2.15 | 1 of 6
MISMEEAPAIQQASSIA | HGGTRAE | QQYNRLPLC | En_Gibbs | 0.17 | 6 of 6
KLDQGVLYESRNKNSVA | GASTRES | QQYHRLPLS | GP_HC | -0.29 | 6 of 6
KSSQSVLYESRNKNSVA | SASTRES | QQYQRIPLS | Ctrl | 0.65 | 6 of 6
RLHEYFYMPENWNNSIA | EKDYRAR | QQYYRLPLA | En_Gibbs | no signal | 0 of 6
KQSQSFLYESRNKNSVA | DANTRES | QQYHRLPLS | GP_HC | -0.45 | 6 of 6
KVPQSMLYESRNKNSVA | NASTRES | QQYHRLPLS | GP_Gen | 2.05 | 4 of 6

The opening 6 entries, copied out:

{"CDR-L1": "KSSQSHLYESRNKNSVA", "CDR-L2": "WASTRES", "CDR-L3": "QQYHRLPLS", "group": "Ctrl", "mean log10 Kd (nM)": "1.50", "seen in": "6 of 6"}
{"CDR-L1": "KSSQSVLYESRAKNSVA", "CDR-L2": "WASQRES", "CDR-L3": "QQYHRLPLS", "group": "Ctrl", "mean log10 Kd (nM)": "no signal", "seen in": "0 of 6"}
{"CDR-L1": "MVNGVLDHLSKNTNNVA", "CDR-L2": "ETSTRES", "CDR-L3": "QQYDRLPLQ", "group": "En_Gen", "mean log10 Kd (nM)": "0.76", "seen in": "6 of 6"}
{"CDR-L1": "KISMLYNFAQTNKNSIA", "CDR-L2": "EMTTREE", "CDR-L3": "QHYHRLPLS", "group": "En_HC", "mean log10 Kd (nM)": "1.65", "seen in": "6 of 6"}
{"CDR-L1": "KVSEFMRGLMKMQDSIA", "CDR-L2": "DNETRPD", "CDR-L3": "QQYDRLPLS", "group": "En_Gen", "mean log10 Kd (nM)": "2.61", "seen in": "6 of 6"}
{"CDR-L1": "KSSQSVLKESTNKNSVA", "CDR-L2": "WAATRES", "CDR-L3": "QQYHHLPLS", "group": "Ctrl", "mean log10 Kd (nM)": "1.79", "seen in": "6 of 6"}